In PubChem BioAssay AID720711 (National Center for Advancing Translational Sciences (NCATS), 2013) one finds activation data, which are given here for 46 compounds.

Amino acid sequences for entries named in this document (tags omitted).
UniProt Q8WZA2, whole entry: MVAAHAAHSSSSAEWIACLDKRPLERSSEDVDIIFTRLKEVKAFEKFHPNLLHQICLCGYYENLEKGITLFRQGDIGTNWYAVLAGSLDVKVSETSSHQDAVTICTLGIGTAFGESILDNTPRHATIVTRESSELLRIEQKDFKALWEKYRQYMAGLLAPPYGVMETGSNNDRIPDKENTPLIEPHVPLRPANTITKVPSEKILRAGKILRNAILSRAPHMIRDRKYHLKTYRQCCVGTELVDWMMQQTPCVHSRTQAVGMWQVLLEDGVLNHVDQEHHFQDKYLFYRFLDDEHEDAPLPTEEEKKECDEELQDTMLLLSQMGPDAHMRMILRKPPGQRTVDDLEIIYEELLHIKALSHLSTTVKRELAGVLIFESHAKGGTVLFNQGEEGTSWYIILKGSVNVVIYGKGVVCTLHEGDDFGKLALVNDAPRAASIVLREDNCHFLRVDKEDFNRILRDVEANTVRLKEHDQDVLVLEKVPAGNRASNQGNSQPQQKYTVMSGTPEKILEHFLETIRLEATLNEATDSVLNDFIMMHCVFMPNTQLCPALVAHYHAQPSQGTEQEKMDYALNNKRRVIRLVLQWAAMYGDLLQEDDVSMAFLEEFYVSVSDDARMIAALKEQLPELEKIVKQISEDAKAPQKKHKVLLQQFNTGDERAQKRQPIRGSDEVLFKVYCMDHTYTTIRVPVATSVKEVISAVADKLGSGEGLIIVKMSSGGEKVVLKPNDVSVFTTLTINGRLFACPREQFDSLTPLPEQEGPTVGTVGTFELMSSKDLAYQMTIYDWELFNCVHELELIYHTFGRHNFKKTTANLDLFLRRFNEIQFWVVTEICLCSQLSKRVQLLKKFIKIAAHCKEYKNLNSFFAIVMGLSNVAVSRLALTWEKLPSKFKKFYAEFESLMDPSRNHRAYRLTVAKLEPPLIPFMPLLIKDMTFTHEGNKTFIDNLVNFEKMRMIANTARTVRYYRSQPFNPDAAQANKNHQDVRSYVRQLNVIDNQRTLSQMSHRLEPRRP

Only a part is listed here, and it is no random draw. Calls of active or inactive are those of the source. The call rests on the fitted dose curve; in most records, active means well fitted activation curve with a large enough effect; inconclusive means small, poorly fitted or top-dose-only effect; inactive means no such curve, though single readings can be large or run the other way.

This test addresses Rap guanine nucleotide exchange factor 4 (Homo sapiens) (UniProt Q8WZA2). Description: qHTS for Agonist of cAMP-regulated guanine nucleotide exchange factor 4 (EPAC2): primary screen. Further: nearly all actives have a fitted effect of over 50% in size. Particulars: biochemical qHTS, 100% = 6.5 mM cAMP response; at 154 µM (top of the series). The text has this:
In multi-cellular eukaryotic organisms, the effects of cAMP are transduced by two ubiquitously-expressed intracellular cAMP receptors, the classic protein kinase A/cAMP-dependent protein kinase (PKA/cAPK) and the more recently discovered exchange protein directly activated by cAMP/cAMP-regulated guanine nucleotide exchange factor (EPAC/cAMP-GEF). Both PKA and EPAC are ubiquitously expressed in all tissues, and an increase in intracellular cAMP levels will lead to the activation of both PKA and EPAC. Therefore, careful dissections of the individual role and relative contribution of EPAC and PKA within the overall cAMP signaling in various model systems are critical for further elucidating the mechanism of cAMP signaling. To date no EPAC-specific antagonists and agonist, as well as isoform-specific agonists have been reported, and developing EPAC-specific pharmacological probes to determine the physiological functions that EPAC play in the overall cAMP-mediated signaling remains a major challenge within the research field. Furthermore, identified regulators of EPAC may lead to new mechanism-based therapeutic strategies specifically targeting the EPAC / cAMP-signaling components as EPAC has been implicated to play important roles in major human pathological conditions such as diabetes, heart disease, and cancer.
This qHTS will be used to screen the Molecular Libraries Small Molecule Repository (MLSMR) as a concentration-titration series using the NCGC unique quantitative screening (qHTS) platform to find activators for EPAC2. In addition, this assay will also be used as a counterscreen for the EPAC1 qHTS. This fluorescent based assay is developed and validated for EPAC2 that measures exchange using EPAC effector Rap1 complex with BODIPY-GDP, a GDP analog with a tethered fluorophores. Activators are identified by monitoring the change in fluorescence signal as the exchanged free BODIPY-GDP has a reduced fluorescence compared to Rap1-bound BODIPY-GDP. […] in signal (activation) is the desired outcome for the EPAC2 agonist while no activity in this assay is desired for the EPAC1 agonist counterscreen.
[1] de Rooij, J., Zwartkruis, F. J., Verheijen, M. H., Cool, R. H., Nijman, S. M., Wittinghofer, A., and Bos, J.L. (1998) Nature 396, 474-477
[2] Kawasaki, H., Springett, G. M., Mochizuki, N., Toki, S., Nakaya, M., Matsuda, M., Housman, D. E., and Graybiel, A. M. (1998) Science 282, 2275-2279
NIH Chemical Genomics Center [NCGC]
NIH Molecular Libraries Probe Centers Network [MLPCN]
Assay Submitter (PI): Xiaodong Cheng, The University of Texas, Medical Branch
Briefly, three uL of reagents (100 nM EPAC2, 250 nM RAP1B-BODIPY-GDP, 50 uM GDP) were dispensed into a 1536-well Greiner black solid-bottom medium binding assay plate. Controls and test compounds (23 nL) were transferred to the plate via a Kalypsys pin tool equipped with a 1536-pin array. The plates were centrifuged at 1,000 rpm for 15 seconds followed by 5 minute incubation at room temperature. The assay plates were read at 5 minute intervals for 30 minutes in the ViewLux plate reader using 480nm excitation and 540nm emission filters. The results were normalized to the agonist positive control of 6.5 mM cAMP.
(In general: In qHTS, concentration-response curves come from the screen itself.)
For `COc1ccc(Cl)cc1C(=O)NCC1(N2CCOCC2)CCCCC1`, the activation is inactive: 0.258%.
For `O=C1C(O)=C([N+](=O)[O-])C(=O)C(O)=C1[N+](=O)[O-]`, the activation is inactive: 7.81%.
`N#CC1(Nc2ccccc2)CCN(Cc2ccccc2)CC1`: the activation was inactive: 12.5%.
With `O=C(NCC1(N2CCCCC2)CCCCC1)c1ccc(Cl)s1` the figure was inactive: 7.77%; with `O=C(OC1CN2CCC1CC2)C1c2ccccc2Oc2ccccc21` (stereo unspecified), inactive: 3.82%; with `O=c1[nH]c2ccccc2n1C1CCN(C(c2cc3ccccc3o2)c2nnnn2C2CCCCC2)CC1` (stereo unspecified), inactive: 2.58%.
With `CCCCn1nnnc1C(c1ccc(OC)cc1)N1CCC(n2c(=O)[nH]c3ccccc32)CC1` (stereo unspecified), the activation is inactive: 14%.
In the case of `CCOC(=O)N1CCC(Nc2ccc(OC)cc2)CC1`, the activation was inactive: 14.2%.
With `Cc1cc(C)cc(N(C(=O)c2ccccc2)C2CCN(C(=O)OC(C)(C)C)CC2)c1` the figure was inactive: 16.9%.
Take `O=C(NCC1(N2CCCCC2)CCCCC1)c1ccc(Cl)nc1`: the activation is inactive: -1.06%.
With `O=c1[nH]c2ccccc2n1C1CCN(C(c2ccccc2OC(F)(F)F)c2nnnn2C2CCCCC2)CC1` (stereo unspecified) the figure was inactive: -4.74%; with `O=C(NCC1(N2CCOCC2)CCCCC1)c1cc2ccccc2o1`, inactive: 3.44%; with `Cc1cccc(NC2(C#N)CCN(Cc3ccccc3)CC2)c1`, inactive: 0.275%.
For `CSc1ccccc1C(=O)NCC1(N2CCCCC2)CCCCC1`, the activation is inactive: 12.9%.
Take `COc1ccc(C(=O)NCC2(N3CCCCC3)CCCCC2)c(OC)c1OC`: the activation is inactive: 2.42%.
On to `CC(C)(C)OC(=O)N1CCC(N(C(=O)c2ccccc2)c2ccc(F)cc2)CC1`, for which the activation was inactive: 6.16%.
With `CCC(c1nnnn1C1CCCC1)N1CCC(n2c(=O)[nH]c3ccccc32)CC1` (stereo unspecified) the figure was inactive: 6.58%; with `COc1ccc(C(=O)NCC2(N3CCCCC3)CCCCC2)cc1`, inactive: 13.1%; with `CCCCn1nnnc1C(CC)N1CCC(n2c(=O)[nH]c3ccccc32)CC1` (stereo unspecified), inactive: -2.51%.
As to `O=C(NCC1(N2CCCCC2)CCCCC1)c1cccs1`, the activation is inactive: 4.98%.
The same measure for `CCCCn1nnnc1C(c1cccs1)N1CCC(n2c(=O)[nH]c3ccccc32)CC1` (stereo unspecified): inactive: 19.5%; for `O=C(NCC1(N2CCCCC2)CCCCC1)c1ccc(=O)[nH]c1`: inactive: -1.24%.
The same measure for `CN1CCC(Nc2ccc(Cl)cc2)CC1`: inactive: 0.115%.
Take `COc1cccc(C(c2nnnn2C2CCCC2)N2CCC(n3c(=O)[nH]c4ccccc43)CC2)c1OC` (stereo unspecified): the activation was inactive: 0.482%.
Take `COc1cc(OC)cc(C(=O)NCC2(N3CCOCC3)CCCCC2)c1`: the activation is inactive: 13.6%.
With `COc1cccc(C(=O)N(c2cc(C)cc(C)c2)C2CCN(C(=O)OC(C)(C)C)CC2)c1`, the activation was inactive: 1.94%.
In the case of `CCC(CO)(C(=O)OC1CN2CCC1CC2)c1ccccc1` (stereo unspecified), the activation was inactive: 7.97%.
With `O=C(O)C1(Nc2ccccc2)CCN(Cc2ccccc2)CC1` the figure was inactive: 0.318%.
With `NN(c1ccccc1)C1CCN(CCc2ccccc2)CC1`, the activation is inactive: -3.29%.
Consider `CC(C)(C)OC(=O)N1CCC(Nc2ccccc2)CC1`, for which the activation is inactive: 10.4%.
Regarding `O=c1[nH]c2ccccc2n1C1CCN(C(c2cc3ccccc3o2)c2nnnn2C2CCCC2)CC1` (stereo unspecified), the activation was inactive: 0.82%.
In the case of `CCCOc1ccc(C(=O)NCC2(N(C)C)CCCCC2)cc1`, the activation is inactive: -1.19%.
Take `CN1CCC(Nc2ccc(F)c(Cl)c2)CC1`: the activation is inactive: 1.16%.
With `CCOc1ncccc1C(=O)NCC1(N2CCOCC2)CCCCC1`, the activation is inactive: -3.19%.
With `CN(C)c1ccc(C(=O)NCC2(N3CCCCC3)CCCCC2)cc1` the figure was inactive: 9.5%; with `Cn1c(=O)[nH]cc(N(CCCl)CCCl)c1=O`, inactive: -0.758%; with `O=C(NCC1(N2CCCCC2)CCCCC1)c1ccco1`, inactive: 7.84%.
Take `COc1ccc(C(c2nnnn2C2CCCCC2)N2CCC(n3c(=O)[nH]c4ccccc43)CC2)cc1` (stereo unspecified): the activation was inactive: 6.08%.
With `CCN1CCC(Nc2cccc(F)c2)CC1` the figure was inactive: 4.2%.
With `CC(C)(C)n1nnnc1C(c1ccnc2ccccc12)N1CCC(n2c(=O)[nH]c3ccccc32)CC1` (stereo unspecified) the figure was inactive: 16%; with `Cc1ccccc1NC1(C#N)CCN(Cc2ccccc2)CC1`, inactive: 5.26%.
With `Fc1ccccc1NC1CCN(Cc2ccccc2)CC1` the figure was inactive: 6.44%; with `Cc1ccc(Nc2c([N+](=O)[O-])cc([N+](=O)[O-])cc2[N+](=O)[O-])cc1`, inactive: 4.81%; with `Cc1ccc(C(=O)NCC2(N3CCCCC3)CCCCC2)o1`, inactive: -4.17%.
`Cc1ccc(NC2(C#N)CCN(Cc3ccccc3)CC2)cc1`: the activation is inactive: 0.489%.
With `CCC(c1nnnn1C1CCCCC1)N1CCC(n2c(=O)[nH]c3ccccc32)CC1` (stereo unspecified) the figure was inactive: 1.39%.
